# Measurements published in ChEMBL document CHEMBL1269000, “Synthesis and biological evaluation of [D-lysine]8cyclosporin A analogs as potential anti-HCV agents” (Bioorg Med Chem Lett, 2010).
# Chains of the proteins cited; added tags and fusions are not shown.
# UniProt P62937, whole entry: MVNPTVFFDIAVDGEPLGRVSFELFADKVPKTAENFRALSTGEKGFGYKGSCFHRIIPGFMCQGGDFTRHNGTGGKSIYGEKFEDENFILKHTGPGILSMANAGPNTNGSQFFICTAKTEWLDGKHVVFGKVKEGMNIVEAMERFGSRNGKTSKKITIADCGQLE
# Target: Peptidyl-prolyl cis-trans isomerase A (Homo sapiens, UniProt P62937)
# Experiment: Binding affinity to cyclophilin A by ELISA
smiles,measurement,value
C/C=C/C[C@@H](C)[C@@H](O)[C@H]1C(=O)N[C@@H](CC)C(=O)N(C)[C@H](SCCN(C)C)C(=O)N(C)[C@@H](CC(C)(C)O)C(=O)N[C@@H](C(C)C)C(=O)N(C)[C@@H](CC(C)C)C(=O)N[C@@H](C)C(=O)N[C@H](C)C(=O)N(C)[C@@H](CC(C)C)C(=O)N(C)[C@@H](CC(C)C)C(=O)N(C)[C@@H](C(C)C)C(=O)N1C [SCY 635],IC50,9.48 nM
